## Apparent affinities of Ab-14 variants for a coronavirus HR2 peptide

Values reported by Engelhart et al. 2022, doi:10.1038/s41597-022-01779-4 (FLAb copy).

Binding partner: SARS-CoV-2 spike HR2 peptide, sequence PDVDLGDISGINAS.

The variants keep the light chain, the linker and the frameworks of Ab-14 (scFv order VH, a (GGGGS)3 linker, VL).
VH: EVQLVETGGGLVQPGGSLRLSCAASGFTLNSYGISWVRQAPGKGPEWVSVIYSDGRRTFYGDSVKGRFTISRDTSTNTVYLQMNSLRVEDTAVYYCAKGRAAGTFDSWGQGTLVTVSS
VL: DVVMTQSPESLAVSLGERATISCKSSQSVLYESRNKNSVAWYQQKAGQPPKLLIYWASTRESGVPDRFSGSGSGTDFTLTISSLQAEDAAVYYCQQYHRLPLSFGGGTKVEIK

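The parent was found by panning a naive human phage display library on the peptide. Library AAYL49 holds single substitutions and randomly drawn double and triple substitutions in the CDRs. In AlphaSeq, yeast of one mating type display the scFv and yeast of the other type display the target. Pairs that bind mate more often; barcode pairs of the diploids are counted by sequencing. The ratio of observed to expected reads was calibrated, replicate by replicate, on BCL2-family standards whose Kd was known from biolayer interferometry. Mating was done three times.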

The parent's heavy chain CDRs are GFTLNSYGIS, VIYSDGRRTFYGDSVK, GRAAGTFDS; each variant's own CDRs replace them letter for letter. Values are log10 of the apparent Kd in nM; lower means stronger binding. The mean shown is taken over the replicates in which the pair was detected. Where no diploid with the target was found in any replicate, the entry reads "no signal": below detection, most likely a poor binder, though not proof of it. Background: pairings of library AAYL49 with three empty control strains gave a value in 15% of cases (median 4.06, 5th percentile 2.83). Values in that range, when seen in few replicates, are hard to tell from nonspecific mating. Parent in this assay: reference entry 0.65, copy in this library 4.11 (one replicate of three).

CDR-H1,CDR-H2,CDR-H3,"log10 Kd (nM), mean",replicates with signal
YFTLNSYGIS,VIYSDGQRTVYGDSVK,GRAAGTFDS,3.01,2/3
GFTLNSYGWS,VICSDGRPTFYGDSVK,GRAAGTFDS,no signal,0/3
GFTLNSYGIS,VIYSDGRRTFYGDSVK,GRAAGSWDS,2.91,2/3
GFTLNSDGIS,LIYSDGRRTFYGDSVK,GRAAGTFDS,no signal,0/3
GRTLNSYGIS,VCYYDGRRTFYGDSVK,GRAAGTFDS,no signal,0/3
GGTLNSYGIS,VIYSDGRRTFYEDSVK,GRAAGTFDR,3.06,3/3
GFTLNSAGIS,VIYSDGRRTFYGDSVK,GKYAGTFDS,no signal,0/3
GFPLNLYGIS,VIYSDGRRTFYGDSVK,GRAAGTVDS,1.11,3/3
GFTLNSYGIS,VIYSDGRRNFYGDSVK,GRAAGTFWH,no signal,0/3
GFTYNSYGIS,VIYSDMRRVFYGDSVK,GRAAGTFDS,4.73,2/3
GFTLNSYGWS,VIYSDGIRTFYGDSVL,GRAAGTFDS,no signal,0/3
GFTLNSYGLS,DIYSDGRRTFYGDSNK,GRAAGTFDS,5.01,1/3
GFTLCSYGIS,VNYSDGRRMFYGDSVK,GRAAGTFDS,no signal,0/3
GFRQNSYGIS,VIYSDGRRTFYGDSVK,GRIAGTFDS,2.85,3/3
GFTLNSYGIS,VIYSDLRRTFYGDSVK,ARAAGTFDS,no signal,0/3
GFTLNSYGMS,VIYSDGRRTFYGDSVK,GRAGGTFDF,no signal,0/3
GFTLNSYGIS,SIYSDKRRTFYGDSVK,GRAAGTMDS,no signal,0/3
AFTLNAYGIS,VIYSDGRRTFYGDSQK,GRAAGTFDS,no signal,0/3
GFSLNSYGIS,VIYSDGRRTAYGCSVK,GRAAGTFDS,0.80,3/3
GFTPNHYGIS,VIYSDGRRTFYGDSVK,GRAAGVFDS,no signal,0/3
GFTLNSYGIS,VIYSDERRTFYGDSTV,GRAAGTFDS,no signal,0/3
GFTLNSYGIS,VIYSDGRRTFFGDSVK,GRAAETKDS,3.18,2/3
GFTLNQYGIS,VIYSDGRRTFYGDSCK,GRAALTFDS,0.71,3/3
GFTLNSYGIS,VIYDDGRRTFYGDSVK,GRWAGTFDE,3.80,1/3
GFTLRSYGIS,VIYSDGRRPFYGDSVK,GRAAGTFDS,4.15,1/3
GFTWNSYGIS,DIYSDGRRTFYGDSGK,GRAAGTFDS,3.29,1/3

The remaining entries, values ahead:

"log10 Kd (nM), mean",replicates with signal,CDR-H1,CDR-H2,CDR-H3
2.77,1/3,GFTLNSYGIS,VIYSDGRFTFYGDSIK,GRAAGTFDS
no signal,0/3,GFTLHSYGIS,VIYSDGRRTFYYDSVK,GRARGTFDS
3.95,3/3,GFTLNSYGIS,QIYKDGRRTFYGDSVK,GRAAGTFDS
4.06,2/3,GVYLNDYGIS,VIYSDGRRTFYGDSVK,GRAAGTFDS
no signal,0/3,GFTLNSYGCS,VIYSDGRRTFYGDSAK,GRAAGTCDS
4.16,2/3,RFTLNSYGIS,VIYSDNRRTFYGDSVK,GRWAGTFDS
no signal,0/3,GFTLNAYQIS,VIYSDGRRTFYGDSVK,GRAAGTFDS
2.31,2/3,GFTLNSYGIF,VWYSDGRRTFWGDSVK,GRAAGTFDS
1.41,3/3,GFTLDSYGIS,VIYSDGSRTFYGDSVK,GRAAGTIDS
2.72,3/3,GFTLQSYGIS,VIYSDGRRTFLIDSVK,GRAAGTFDS
1.16,3/3,GFTLNSYGIH,VIYSDGRRTFYGDSVK,GRAAGRFWS
4.96,3/3,GFTLNSYGIS,VIYSDGRRTWYGKSRK,GRAAGTFDS
1.03,3/3,GFTLESYGIS,VIYSDGYRTFYGDSVK,GRAAGTFDS
no signal,0/3,GFTLNIYGIS,VIYSDGRRTYDGDSVK,GRAAGTFDS
4.40,2/3,GFTLNSYGIS,VIYVDDRRTVYGDSVK,GRAAGTFDS
1.75,3/3,GFTLNSYGIS,VIYSDGRRTFYGDSVK,GRATGHADS
no signal,0/3,GFTLNSYGII,VIYSDGLRNFYGDSVK,GRAAGTFDS
1.27,3/3,GFTLNHYGIS,VIYSDGMRTFYGNSVK,GRAAGTFDS
0.90,3/3,GFTLDSYGIS,VIYSDGRRTFYGDSVK,RRAAGTFDS
no signal,0/3,GFTLNSYGID,VIYSYGRRTFYGDSVK,GRAAGTFDS
3.92,1/3,GFTLNSPGIS,VIYSDGRRPFYGDSVK,NRAAGTFDS
no signal,0/3,GFTLNSYIIS,VIDSDGRRTDYGDSVK,GRAAGTFDS
3.94,1/3,GFTLNSYGPS,VIYSDGRRTFMGDSVK,GRAAGTFDR
no signal,0/3,GFTLNSYGIS,VIHSDGVRTIYGDSVK,GRAAGTFDS
6.15,2/3,GFTLNSYGIS,VIPPDGRRTFYGDSVK,GRAAGTFDT
3.99,2/3,GFTLNFYGIS,VIYSDGRIRFYGDSVK,GRAAGTFDS
5.41,1/3,GFTLNSYGIS,VCYQDGRRTFYGDSVK,GRAAHTFDS

A selection of 4 entries from above:

| CDR-H1 | CDR-H2 | CDR-H3 | log10 Kd (nM), mean | replicates with signal |
|---|---|---|---|---|
| GFTLNSYGLS | DIYSDGRRTFYGDSNK | GRAAGTFDS | 5.01 | 1/3 |
| GFTLNSYGWS | VIYSDGIRTFYGDSVL | GRAAGTFDS | no signal | 0/3 |
| GFTLCSYGIS | VNYSDGRRMFYGDSVK | GRAAGTFDS | no signal | 0/3 |
| GFTLRSYGIS | VIYSDGRRPFYGDSVK | GRAAGTFDS | 4.15 | 1/3 |